Antibody variant affinities, Ab-14 heavy chain, assay B

All variants were tested on one target, the spike HR2 peptide PDVDLGDISGINAS (SARS-CoV-2).

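The variants were designed computationally from a first round of random CDR variants and then made and measured. Group labels follow the data file (Ctrl: baseline library sampled from a position-specific scoring matrix, with some repeated check sequences; Rand: our label for a block that the file lists under HC and that is probably the random mutants of the ten best first-round binders; GP: Gaussian process model; GPLM: also part of the Gaussian process libraries; HC: hill climbing; Gen: genetic algorithm; Gibbs: Gibbs sampling; a sequence that several methods proposed may carry one label only). The scFvs were displayed on barcoded MATa yeast, the peptide on MATalpha yeast. The frequency of each diploid, read from paired DNA barcodes, reflects how well the two displayed proteins bind. The ratio of observed to expected reads was calibrated, replicate by replicate, on BCL2-family standards whose Kd was known from biolayer interferometry. Each pool was mated in six replicate cultures.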

Parent scFv Ab-14: VH joined to VL by three GGGGS repeats. Changes lie in the heavy chain CDRs alone.
VH: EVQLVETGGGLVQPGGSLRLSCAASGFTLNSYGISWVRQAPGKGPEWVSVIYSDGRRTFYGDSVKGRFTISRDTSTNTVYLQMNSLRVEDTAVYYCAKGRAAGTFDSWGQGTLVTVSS
VL: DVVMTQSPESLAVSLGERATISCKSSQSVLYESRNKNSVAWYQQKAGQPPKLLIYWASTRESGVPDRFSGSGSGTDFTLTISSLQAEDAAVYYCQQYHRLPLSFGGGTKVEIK

The whole VH of each variant is written out. Variants here have at most six changes. Values are log10 of the apparent Kd in nM; lower means stronger binding. Replicates are averaged; those with no signal do not enter the mean. "nd" means that the variant was in the library but no mating with the target was seen in any replicate; the authors take this as a sign of poor binding, and no number exists. Of ten entries with the parent sequence, four were seen in most replicates (averages 0.34 to 2.37), three in one and three in none, so single entries are noisy.

* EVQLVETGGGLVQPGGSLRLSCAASKFTLNSYGISWVRQAPGKGPEWVSVIYSDGKRTFYKDSVKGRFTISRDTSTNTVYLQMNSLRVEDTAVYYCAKGQTAGTFDSWGQGTLVTVSS [GP_Gibbs]: nd (0 of 6 replicates; controls 0 of 18)
* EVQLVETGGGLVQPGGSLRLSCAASGFSLNNYGISWVRQAPGKGPEWVSVIYSDGRRTFYGDQVKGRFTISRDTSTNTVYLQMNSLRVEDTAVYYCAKGQTAGTFDSWGQGTLVTVSS [GP_Gen]: 1.13 (6 of 6 replicates; controls 1 of 18)
* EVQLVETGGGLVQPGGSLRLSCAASGFDLNSYGISWVRQAPGKGPEWVSVIYSDGRRTFYGDSVKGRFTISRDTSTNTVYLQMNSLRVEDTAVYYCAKGRAAGHFHSWGQGTLVTVSS [GPLM_HC]: nd (0 of 6 replicates; controls 0 of 18)
* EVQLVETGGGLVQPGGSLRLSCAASGFNLNSYGISWVRQAPGKGPEWVSVIYADGRRTFYVDSVKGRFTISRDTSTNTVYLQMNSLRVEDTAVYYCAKGQAAGTFDSWGQGTLVTVSS [GP_HC]: 0.21 (6 of 6 replicates; controls 0 of 18)
* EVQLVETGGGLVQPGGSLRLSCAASGFDLNSYGISWVRQAPGKGPEWVSVIYSDGRRTFYADSVKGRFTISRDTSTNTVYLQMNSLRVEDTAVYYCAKGKEAGTFDAWGQGTLVTVSS [GP_Gibbs]: -0.18 (6 of 6 replicates; controls 0 of 18)
* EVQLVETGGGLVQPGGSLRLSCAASGFTLNEYGISWVRQAPGKGPEWVSVIYSDGRRTFYSDSVKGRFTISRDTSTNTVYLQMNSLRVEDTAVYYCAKGWAAGTFDNWGQGTLVTVSS [GP_HC]: 0.73 (6 of 6 replicates; controls 0 of 18)
* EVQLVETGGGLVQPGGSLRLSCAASGFTLRDYGISWVRQAPGKGPEWVSVIYSDGRRTFYSDSVKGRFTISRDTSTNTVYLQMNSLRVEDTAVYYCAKGRAAGTFDSWGQGTLVTVSS [Ctrl]: 0.62 (6 of 6 replicates; controls 0 of 18)
* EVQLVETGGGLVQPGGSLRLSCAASGFTLNSYGISWVRQAPGKGPEWVSVIYSDGRRTFYYDSFKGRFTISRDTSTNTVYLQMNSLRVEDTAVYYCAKGRAGNTFDSWGQGTLVTVSS [Rand]: nd (0 of 6 replicates; controls 0 of 18)
* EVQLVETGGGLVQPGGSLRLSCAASGFTINSYGISWVRQAPGKGPEWVSVIYSDGRRTFYGDQVKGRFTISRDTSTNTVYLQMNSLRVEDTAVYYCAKGRAAGTMDSWGQGTLVTVSS [Ctrl]: 1.36 (2 of 6 replicates; controls 0 of 18)
* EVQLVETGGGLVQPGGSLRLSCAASGFWLNEYGISWVRQAPGKGPEWVSVIYSDGRRTFYGDSVKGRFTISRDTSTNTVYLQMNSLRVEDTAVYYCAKGKAAGTFDTWGQGTLVTVSS [GPLM_Gen]: 0.62 (5 of 6 replicates; controls 0 of 18)
* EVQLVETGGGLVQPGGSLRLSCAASGFTLNEYGISWVRQAPGKGPEWVSVIYSDGRRTFYGDSVKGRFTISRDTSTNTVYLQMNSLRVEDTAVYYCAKGRAAGTFISWGQGTLVTVSS [GPLM_HC]: nd (0 of 6 replicates; controls 0 of 18)
* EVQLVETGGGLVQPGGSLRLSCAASKFDLNNYGISWVRQAPGKGPEWVSVIYSDGRRTFYGDSVKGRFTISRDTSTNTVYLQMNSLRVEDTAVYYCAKGRTAGTFDSWGQGTLVTVSS [GP_Gen]: 0.18 (6 of 6 replicates; controls 0 of 18)
* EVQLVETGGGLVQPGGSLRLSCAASGFDLNSYGISWVRQAPGKGPEWVSVIYSDGRRTFYGDSVKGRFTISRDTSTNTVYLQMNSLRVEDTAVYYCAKSRLAGTSMSWGQGTLVTVSS [Ctrl]: nd (0 of 6 replicates; controls 0 of 18)
* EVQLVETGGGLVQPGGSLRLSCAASSFDLNSYGISWVRQAPGKGPEWVSVIYSDGRRTFYKDSVKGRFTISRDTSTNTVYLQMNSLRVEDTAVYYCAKGRTAGTFDSWGQGTLVTVSS [GP_Gen]: 0.09 (6 of 6 replicates; controls 0 of 18)
* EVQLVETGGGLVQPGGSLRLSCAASGFDLNMYGISWVRQAPGKGPEWVSVIYSDGRRTFYGDSVKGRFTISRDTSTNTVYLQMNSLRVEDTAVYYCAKGREAGTFDSWGQGTLVTVSS [GP_Gen]: -0.15 (6 of 6 replicates; controls 0 of 18)
* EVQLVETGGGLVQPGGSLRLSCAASDFTLNSYGISWVRQAPGKGPEWVSVIYSDGLRTFYGDSVKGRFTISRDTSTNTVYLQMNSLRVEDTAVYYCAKGRAAGTFDSWGQGTLVTVSS [Ctrl]: nd (0 of 6 replicates; controls 0 of 18)
* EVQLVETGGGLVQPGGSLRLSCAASGFELNSYGISWVRQAPGKGPEWVSVIYSDGRRTFYGDEVKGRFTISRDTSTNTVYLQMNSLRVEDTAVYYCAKGKTAGTFDSWGQGTLVTVSS [GP_Gibbs]: 1.90 (4 of 6 replicates; controls 0 of 18)
* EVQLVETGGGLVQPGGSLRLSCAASCFTLNSYGISWVRQAPGKGPEWVSVIYPDGRRKFYGDSVKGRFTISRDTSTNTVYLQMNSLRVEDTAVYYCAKGRAAGTNKSWGQGTLVTVSS [Rand]: nd (0 of 6 replicates; controls 0 of 18)
* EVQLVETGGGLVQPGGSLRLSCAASGFTLESYGISWVRQAPGKGPEWVSVIYSDGRRTFYGDSVKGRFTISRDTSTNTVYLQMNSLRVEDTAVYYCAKGREAGTFDSWGQGTLVTVSS [GPLM_HC]: 0.28 (6 of 6 replicates; controls 0 of 18)
* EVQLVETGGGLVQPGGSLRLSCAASGFTLNQYGISWVRQAPGKGPEWVSVIYSDGRRTFYSCSVKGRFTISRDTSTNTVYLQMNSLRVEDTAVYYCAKNRAAGFFDSWGQGTLVTVSS [Rand]: nd (0 of 6 replicates; controls 0 of 18)
* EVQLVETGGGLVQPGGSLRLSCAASGFTLNEYGISWVRQAPGKGPEWVSVIYSDGRRTFYGDSVKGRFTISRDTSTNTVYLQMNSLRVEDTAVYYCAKGRTAGTFDQWGQGTLVTVSS [GPLM_Gen]: -0.03 (6 of 6 replicates; controls 0 of 18)
* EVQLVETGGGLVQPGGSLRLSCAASGFTLNSYGIQWVRQAPGKGPEWVSVIYSDGRRTFYSDSVKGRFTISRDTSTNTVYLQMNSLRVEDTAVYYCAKGRAAGTFDSWGQGTLVTVSS [Ctrl]: nd (0 of 6 replicates; controls 0 of 18)
* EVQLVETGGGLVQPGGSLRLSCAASGFWLNEYGISWVRQAPGKGPEWVSVIYSDGRRTFYGDSVKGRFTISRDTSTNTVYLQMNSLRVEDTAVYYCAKGQAAGTFDKWGQGTLVTVSS [GPLM_Gen]: 1.76 (3 of 6 replicates; controls 0 of 18)
* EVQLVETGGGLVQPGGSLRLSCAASKFTLNSYGISWVRQAPGKGPEWVSVIYSDGRRTFYSDSVKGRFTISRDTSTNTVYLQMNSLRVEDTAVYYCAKGKEAGTFDSWGQGTLVTVSS [GP_Gibbs]: 0.58 (6 of 6 replicates; controls 0 of 18)

A sequence measured in both rounds can read differently, since the two assays cover different ranges. The authors averaged sequences with at least three values out of six and counted those with two or fewer as poor binders. Three control strains display no target. For all heavy chain designs, 1% of the pairings with them gave a signal, with a median of 2.08 and one signal in twenty below 0.84, so weak values seen in few replicates may be background. For each scFv, signals with the empty controls are counted beside the result.

Data: MIT Lincoln Laboratory AlphaSeq set, Li et al. 2023, doi:10.1038/s41467-023-39022-2, as distributed in FLAb.